Apparent affinities of Ab-14 variants for a coronavirus HR2 peptide

The measurements come from Li et al. 2023 (doi:10.1038/s41467-023-39022-2) through the FLAb antibody collection.

All variants were tested on one target, the spike HR2 peptide PDVDLGDISGINAS (SARS-CoV-2).

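The parent was found by panning a naive human phage display library on the peptide. This is the validation round: designs drawn from the data on random variants, tested in the same kind of assay. Their group label is 14L_Ctrl (Ctrl: baseline library sampled from a position-specific scoring matrix, with some repeated check sequences). The assay is AlphaSeq: two haploid yeast populations carry antibody and antigen on their surface. Pairs that bind mate more often; barcode pairs of the diploids are counted by sequencing. Scores were corrected for input abundance and mapped to Kd with protein pairs of known affinity run in the same pool. Mating was done six times.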

Parent scFv Ab-14: VH joined to VL by a 15-residue (Gly4Ser)3 linker. Changes lie in the light chain CDRs alone.
VH: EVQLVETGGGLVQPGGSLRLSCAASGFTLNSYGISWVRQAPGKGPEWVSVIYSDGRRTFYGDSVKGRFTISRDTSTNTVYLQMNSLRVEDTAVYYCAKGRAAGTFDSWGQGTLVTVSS
VL: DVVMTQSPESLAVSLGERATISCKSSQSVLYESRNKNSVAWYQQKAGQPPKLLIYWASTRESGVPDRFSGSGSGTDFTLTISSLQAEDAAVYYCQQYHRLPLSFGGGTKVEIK

The parent's light chain CDRs are KSSQSVLYESRNKNSVA, WASTRES, QQYHRLPLS; each variant's own CDRs replace them letter for letter.
Affinities are written as log10 Kd with Kd in nM; a lower number is a better binder.
Averages over replicates are reported, and they cover detected replicates only.
Where no diploid with the target was found in that replicate, the entry reads "n.d.": below detection, most likely a poor binder, though not proof of it.
Of ten entries with the parent sequence, four were seen in most replicates (averages 0.34 to 2.37), three in one and three in none, so single entries are noisy.
In the paper, a design with two or fewer of six values counts as a poor binder.
Values of this round are not directly comparable with the first-round values of the same sequences.
Nonspecific signal, from three strains lacking the peptide, appeared in 4% of pairings of all light chain designs, centred on 2.64 (5% of these signals below 1.59); values are not corrected for it. The control count says in how many pairings with the empty strains this scFv gave a signal, with their mean in brackets.

CDR-L1	CDR-L2	CDR-L3	replicates, log10 nM	mean, log10 nM	signal with controls
KSSQSSLYESRNKNSVA	WADTRES	QQYHRLPLS	1.69 1.64 1.04 1.48 1.54 1.93	1.55	3 of 18 (2.61)
KSSQSVLYESRNHNSVA	HASERET	QQRHHLPLS	n.d. n.d. n.d. n.d. n.d. n.d.	n.d.	0 of 18
KSRQSVLYESRNKNDVA	SASTRES	QQYHQLYLG	n.d. n.d. n.d. n.d. n.d. n.d.	n.d.	0 of 18
KSSQSVLYESRNVNSLA	WASTRES	QQYHRLPLS	1.24 1.51 2.23 1.90 1.12 1.73	1.62	0 of 18
KMSQSHLYESRNKNSVA	DASTRES	QQYCRLPLS	0.31 0.30 -0.21 -0.05 0.76 0.10	0.20	1 of 18 (1.62)
KSSQSVLYESRNTNSVA	WASTRDS	QQYHRLPLS	4.10 n.d. n.d. 2.93 2.37 2.52	2.98	2 of 18 (2.25)
MSSQSVLFESRNKNSVA	WASTRES	QQYRVLPLS	n.d. n.d. n.d. n.d. n.d. n.d.	n.d.	0 of 18
KSSQSKLYEMRNKNSVA	EASTRES	QQYHRLPLS	n.d. n.d. n.d. n.d. 1.65 n.d.	1.65	0 of 18
KSPQSVLQESRNKNSVA	WASTRET	QDYHRLPLS	1.77 1.44 1.55 1.75 1.42 1.90	1.64	2 of 18 (2.99)
KSSQSVQDESRNMNSVA	WASTRES	QQYHRLPLS	2.15 3.77 1.42 1.83 1.49 1.98	2.11	0 of 18
KMSGSVLYESRNKNSVA	WASTRES	QQYHQLPLS	0.57 0.49 0.99 0.60 0.55 0.62	0.64	0 of 18
KSSQSPLYESRNKNSVA	WASTRES	QQYHRLPLS	n.d. 1.25 n.d. 1.48 1.03 1.37	1.28	0 of 18
KSSQSVLYESRFKNSVA	EASTREQ	QQYGRLPLS	0.46 0.59 0.44 0.71 0.42 0.77	0.57	0 of 18
KSSQPVWYESRNKNSVA	SASTTVS	QQYHRLPLS	1.86 1.32 2.19 1.23 2.16 2.04	1.80	0 of 18
KCSQSLLYESRNKNSVA	EASTRES	QQYHRLPLS	-0.45 -0.48 -0.45 -0.57 -0.90 -0.39	-0.54	0 of 18
KSSQDVLYESRNKNSVA	WASTREA	QQYHRLPLD	n.d. n.d. n.d. n.d. n.d. n.d.	n.d.	0 of 18
KYSQSVLYESNNKNSVA	WASTRES	QQYDRLALS	n.d. n.d. n.d. n.d. n.d. n.d.	n.d.	0 of 18
KSSQSELDESRNPNSVA	WASTRES	QQYHRLPLS	1.48 0.57 0.82 1.03 0.78 0.76	0.90	1 of 18 (2.04)
KQSQSVLYDSRNKNSVA	EASTRES	QQYHRLPLS	0.34 0.29 0.12 -0.05 0.10 0.24	0.17	1 of 18 (3.27)
KSSNSVLDESKNKNSVA	WASTRES	QQYMRLPLS	1.02 1.75 1.34 1.51 1.27 1.95	1.47	1 of 18 (3.77)
KHSDSVPNESRNKNSVA	WASTRES	QQYHRLPLS	n.d. 3.44 2.08 1.37 1.54 1.54	1.99	0 of 18
KSDQSVLPESGNKNSVA	AASTRES	QQYHRLPLS	0.20 0.36 0.24 0.28 0.30 0.69	0.35	0 of 18
KSSQSVLWEERNKNSFA	GASTRES	QQYHRLPWS	n.d. n.d. n.d. n.d. n.d. n.d.	n.d.	3 of 18 (2.63)
KSSQSVTYCSHNKNSVA	EASTRES	QQYHRLPLS	0.76 0.45 0.92 0.47 0.55 1.10	0.71	0 of 18
KCSSSVLPESQNKNPVA	WASTREH	QQYGRLPLS	0.34 0.52 0.31 0.51 0.61 0.91	0.53	2 of 18 (2.61)
NSSQSVLYESRNKNSVA	YASTRES	QQYHRLPLS	2.50 n.d. 1.91 1.92 3.40 1.74	2.29	1 of 18 (2.71)
KSSQSVLYESRNKNSVA	TASTHES	VQYHRLPLS	n.d. n.d. n.d. n.d. n.d. n.d.	n.d.	0 of 18
KSSTSVLYESRNKNSVA	WAVTRES	QQYHRLPLS	n.d. n.d. n.d. n.d. n.d. n.d.	n.d.	0 of 18
KSSQSVLDESRFKNSVA	WASTRES	QQYHRLPLS	3.07 3.22 3.16 2.29 2.42 2.67	2.80	2 of 18 (1.93)
KVEQSVLYEQRNKNSVA	AASTREH	QQYHRLPLS	-0.29 0.06 -0.36 -0.33 -0.32 0.10	-0.19	1 of 18 (1.63)
KSSESVLYLSRNKNNVA	WASIRES	QAYHRLPLS	0.91 1.41 1.91 0.77 1.66 1.37	1.34	0 of 18
KSSQSVLYESQNKNSVW	FASTRES	QQYHRLPLS	n.d. n.d. n.d. n.d. n.d. n.d.	n.d.	0 of 18
KSSFSVLYESRNYNSVA	WASTRED	QQYPRPYLS	n.d. n.d. n.d. n.d. 1.40 n.d.	1.40	0 of 18

A selection of 5 entries from above:

| CDR-L1 | CDR-L2 | CDR-L3 | replicates, log10 nM | mean, log10 nM | signal with controls |
|---|---|---|---|---|---|
| KSSQSVLYESRNHNSVA | HASERET | QQRHHLPLS | n.d. n.d. n.d. n.d. n.d. n.d. | n.d. | 0 of 18 |
| KSSQSVQDESRNMNSVA | WASTRES | QQYHRLPLS | 2.15 3.77 1.42 1.83 1.49 1.98 | 2.11 | 0 of 18 |
| KMSGSVLYESRNKNSVA | WASTRES | QQYHQLPLS | 0.57 0.49 0.99 0.60 0.55 0.62 | 0.64 | 0 of 18 |
| KSSQPVWYESRNKNSVA | SASTTVS | QQYHRLPLS | 1.86 1.32 2.19 1.23 2.16 2.04 | 1.80 | 0 of 18 |
| KSSQSVLDESRFKNSVA | WASTRES | QQYHRLPLS | 3.07 3.22 3.16 2.29 2.42 2.67 | 2.80 | 2 of 18 (1.93) |